# Assay results published in patent US20050192262A1, “Treatment of tumours” (priority 2001, published 2005).
# Key:
# Assay in all cases: Facscan viability (chlorofluoresceindiacetate / propidiumiodide)
# Type in all cases: cell-based, human
# Details in all cases: 200 nM 17α-AED + rat liver cytosol + PAPS, Herceptin 1:150, 72 hours
# [1] = tested on: PC-3
# Experimental: (§1) Effects of HER-2 and 17α-AED-3β-sulfate in breast and prostate cancer cell lines. Cell cultures of prostate cancer cell lines PC-3 and DU-145 as well as mammary cancer cell lines MCF-7 and SKBR-3 were grown in flasks as previously described in the presence or absence of a 200 nM 17α-AED. Cultures containing 17α-AED were further subdivided and these cultures were grown in the presence or absence of Herceptin®, her-2 antibodies, using a stem solution of 1 mg/ml which was further diluted, making the final concentration 1:150 In the cell suspension.
# (§2) Representations of each cell line containing no steroid were also treated with herceptin as above. For each cell line and variation of treatment 3 different culture flasks were used.
# (§3) Further, a mixture of 100 μL rat liver cytosol and 20 μL of 3′-phosphoadenosine-5′-phosphosulphate (PAPS), corresponding to approximately 0.16 mg of PAPS was shared between and added to cultures containing 17α-AED.
# (§4) Finally, for each cell line three samples were kept as untreated controls.
# (§5) To estimate the number of viable cells a solution of chlorofluoresceindiacetate was added to the cultures on the last day of culture. This chemical penetrates freely into cells, but is metabolized in the living cell into a form with green fluorescence unable to leave the cell. As counterstaining, to detect dead cells, propidiumiodide, giving a red fluorescence, was added 15 minutes before analyzing the samples in a Facscan. Time for 10000 cells to pass the detector in the Facscan was estimated in order to detect a possible growth inhibitory effect, not resulting in an increased number of dead cells.
# [2] = tested on: SKBR-3
# Experimental: as §1, §2, §3, §4, §5
# [3] = tested on: MCF-7
# Experimental: as §1, §2, §3, §4, §5
# [4] = tested on: DU-145
# Experimental: as §1, §2, §3, §4, §5
substance,measurement,setting,value
"Her-ab: Herceptin®, her-2 antibodies [reference compound]",dead,[1],17%
same,dead,[2],19%
same,dead,[3],12%
same,dead,[4],17%
